Reference: patent US8093393B2, “Cationic ceramides, and analogs thereof, and their use for preventing or treating cancer” (MUSC Foundation for Research Development, priority 2004, dated 2012)

What was measured:
[1] = test system: isolated rat liver mitochondria; experiment: Accumulation / binding in isolated mitochondria
Procedure: FIG. 16. […] Bar 2 and 4 (+FCCP), ΔΨ was dissipated by addition of FCCP at 1 μM plus antimycin A at 0.5 μg/mg protein from the beginning of the experiment. Results are expressed as mean+SEM of n=3, *p=0.01 versus control.
FIG. 23. […] Trace 3 was corrected for the absorbance of TMRM.
Preparation of mitochondria from rat liver.
Mitochondrial incubation medium.
Analysis of ceramides by mass spectroscopy (MS).

[2] = aqueous conditions at pH 4.5, 7.5 and 8.5 over 48 hrs
[3] = test system: MCF7 cells; conditions: 5 μM

D-erythro-2-N-[6′-(1″-Pyridinium)-hexanoyl]-sphingosine Bromide [LCL29]
suppression of accumulation by dissipation of ΔΨ (antimycin plus FCCP) ([1]; 10 μM): 66.8%
ΔΨ-dependent uptake ([1]; 10 μM): 6.28 nmol/mg protein
association with mitochondria ([1]; 10 μM, energized mitochondria): 95%
binding to mitochondria ([1]; 30 μM, at 4 min): 5±0.8 nmol/mg protein
concentration in the matrix space ([1]; calculated with matrix volume 1.6 μl/mg protein): 3900 µM
Stability (decomposition) by MS [2]: no evidence of their decomposition
Cellular level, % of concentration applied ([3]; 5 h): ~17%
Cellular level, % of concentration applied ([3]; 24 h): 32%

Like-named read-outs stand apart in the source and are kept apart here.
